Results: ChEMBL document CHEMBL4130393, “An update on small molecules targeting CXCR4 as starting points for the development of anti-cancer therapeutics” (Eur J Med Chem, 2017)

Amino acid sequences for entries named in this document (tags omitted).
UniProt P61073, whole entry: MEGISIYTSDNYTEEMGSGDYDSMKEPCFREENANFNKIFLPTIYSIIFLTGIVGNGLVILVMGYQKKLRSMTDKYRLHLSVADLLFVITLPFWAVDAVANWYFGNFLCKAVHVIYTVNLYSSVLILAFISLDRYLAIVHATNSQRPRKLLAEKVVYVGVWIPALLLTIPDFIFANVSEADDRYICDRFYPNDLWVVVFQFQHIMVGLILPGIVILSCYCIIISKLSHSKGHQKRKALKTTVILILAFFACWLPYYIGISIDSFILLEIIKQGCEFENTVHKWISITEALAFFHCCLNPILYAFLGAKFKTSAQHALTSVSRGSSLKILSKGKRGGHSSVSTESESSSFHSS

Target: C-X-C chemokine receptor type 4 (Homo sapiens, UniProt P61073)
Assay: Antagonist activity at CXCR4 (unknown origin)
Type: functional

IC50: 13 nM
Structure (SMILES): NCCCCN(Cc1nc2ccccc2[nH]1)C1CCCc2cccnc21 (stereo unspecified)
